Test results reported in PubChem BioAssay AID923 (National Center for Advancing Translational Sciences (NCATS), 2007).
The list shows a part of the results, in another mix than the full data. Activity calls are given as the source filed them. The call rests on the fitted dose curve; in most records, active means well fitted activation curve with a large enough effect; inconclusive means small, poorly fitted or top-dose-only effect; inactive means flat fitted curve, though single readings scatter.

assay: qHTS Assay for Allosteric/Competitive Inhibitors of Caspase-1: Spectroscopic Profiling in AFC Spectral Region; settings: compound fluorescence, AFC spectral region (405/520 nm); at 57.5 µM (top of the series) unless noted; further: 0% is about no effect

SMILES | fluorescence increase
NNC(NN)NN.n1nc(-c2nn[nH]n2)n[nH]1 | inactive: 2.57% [at 11.5 µM]
CP(=O)(Nc1ccc2c(c1)OCCO2)Oc1ccccc1 (stereo not given) | inactive: 2.17%
CN1CCC[C@H](OC(=O)C(c2ccccc2)c2ccccc2)C1 | inactive: 0.994% [at 11.5 µM]
CP(=O)(Nc1ccccc1F)Oc1ccccc1 (stereo not given) | inactive: -1.31%
O=P1(Nc2nc3ccc(Cl)cc3s2)COc2ccccc2O1 (stereo not given) | inactive: -0.412%
CCC(C)(OO)OOC(C)(CC)OO (stereo not given) | inactive: 0.927%
Cc1cccc([N+](=O)[O-])c1[N+](=O)[O-] | inactive: 0.734%
COC(=O)c1cc2c(s1)N=C(c1ccccc1)N(C)P2(=O)N1CCOCC1 (stereo not given) | inactive: 0.139%
O=[As](O)(O)c1ccc([As](=O)(O)O)cc1 | inactive: 1.7% [at 11.5 µM]
CCOP1(=S)c2c(C)nn(CCC#N)c2N=C(c2ccccc2F)N1C (stereo not given) | inactive: 1.52%
O=P(Nc1nccs1)(c1ccccc1)c1nc2ccccc2s1 (stereo not given) | inactive: 2.21%
O=[N+]([O-])c1cccc([N+](=O)[O-])c1 | inactive: 0.461%
CCOP1(=S)c2c(C)nn(CCC#N)c2N=C(c2ccc(F)cc2)N1C (stereo not given) | inactive: -1.45%
Cc1ccc([N+](=O)[O-])cc1[N+](=O)[O-] | inactive: -0.0432%
CN(C(=O)Cc1ccc(Cl)c(Cl)c1)[C@@H]1CC[C@@]2(CCCO2)C[C@H]1N1CCCC1 | inactive: -2.02%
Cc1ccc(C)c(NP(C)(=O)Oc2ccccc2)c1 (stereo not given) | inactive: -1.17%
O=C(CC(=O)c1ccccc1)O[C@H]1CN2CCC1CC2 | inactive: 0.587% [at 11.5 µM]
NS(=O)(=O)Cc1ccc([As](=O)(O)O)cc1 | inactive: 0.737% [at 11.5 µM]
Clc1n[nH]nc1-c1nn[nH][15n]1 | inactive: -0.517%
CN(CCCl)Cc1cc(Cl)c(NC2=NCCN2)c(Cl)c1 | inactive: -1.08%

SMILES | fluorescence increase
O=P1(Nc2ccccn2)COc2ccccc2OC1 | inactive: 1.1%
Cc1nc2ccc3ccccc3c2s1.O=[N+]([O-])c1cc([N+](=O)[O-])c(O)c([N+](=O)[O-])c1 | inactive: -1.33%
Cc1nn(-c2ccccc2)c2c1P(=O)(N1CCOCC1)N(C)C(c1ccccc1)=N2 (stereo not given) | inactive: -2.51%
O=P1(Nc2ccc(Br)cn2)COc2ccccc2OC1 | inactive: 0.565%
O=P1(Nc2ncccn2)COc2ccccc2OC1 | inactive: -2.85%
N1=C(c2nnc(-c3nn[nH]n3)nn2)NNN1 | inactive: -2.28% [at 11.5 µM]
CN(N=O)C(=N)N[N+](=O)[O-] | inactive: 0.722%
CP(=S)(Nn1cnnc1)Oc1ccccc1 (stereo not given) | inactive: 2.72%
O=C(O)[C@@H](O)c1ccc([As](=O)(O)O)cc1 | inactive: -2.19% [at 11.5 µM]
CP(=O)(NC(=O)Nc1ccccc1)Oc1ccccc1 (stereo not given) | inactive: 1.3%
O=C(COc1ccccc1)OC1CN2CCC1CC2 (stereo not given) | inactive: -0.768%
COP1(=S)c2c(C)nn(CCC#N)c2N=C(c2ccc(F)cc2)N1C (stereo not given) | inactive: -1.07%
CCOP(C)(=S)SCC(=O)NC(C)C(=O)O (stereo not given) | inactive: 0.453%
NC(=O)Nc1cc([As](=O)(O)O)cc(I)c1O | inactive: -0.0887% [at 11.5 µM]
O=C(OC1CN2CCC1CC2)C12CC3CC(CC(C3)C1)C2 (stereo not given) | inactive: 1.71%
O=[N+]([O-])[O-].[NH4+] | inactive: 2.05%
COc1ccccc1OP(C)(=O)Nc1ccc(C)cc1 (stereo not given) | inactive: 0.353%
[N-]=[N+]=NCC(N)=O | inactive: -0.299% [at 11.5 µM]
Cc1ccc(NP(C)(=O)Oc2ccccc2)c(C)c1 (stereo not given) | inactive: -1.5%
O=[As]c1ccc(S(=O)(=O)NCCO)cc1 (stereo not given) | inactive: 0.727% [at 11.5 µM]
